US11643437B2, “Tandem repeat cancer-targeting peptides for molecular conjugation or engineering and uses thereof in cancer theranostics” (Chang Gung Memorial Hospital, priority 2020, dated 2023)

System: BT-474 human breast carcinoma cells
Test: BT-474 cell viability by RTCA
Type: cell-based
Settings: amounts corresponding to 0.5 mg/ml and 1.25 mg/ml Herceptin, 3 days
Description: The ability of F4P6-TR-CTP-MNC-Herceptin to kill cancer cells was compared to that of MNC-Herceptin in HER-2/neu. Briefly, BT-474 human breast carcinoma cells, which overexpress HER2/neu, were seeded at 1×10^4 cells per well in a 96-well E-plate and cultured for one day. Wells were treated with vehicle, Herceptin alone, MNC-Herceptin, or F4P6-TR-CTP-MNC-Herceptin in amounts corresponding to 0.5 mg/ml and 1.25 mg/ml Herceptin. Cell viability was assessed after 3 days using RTCA as described in Example 6, supra.

trastuzumab [Herceptin]
cell survival (percent of vehicle control): did not inhibit survival
